This note sets out measurements from patent US11998616B2, “Nanoparticles for crossing the blood brain barrier and methods of treatment using the same” (California Institute of Technology, priority 2018, dated 2024).

Experiment [1] concerns HER2-positive BT474-Gluc breast cancer brain metastases. Briefly: Anti-HER2 therapy on BT474-Gluc brain metastases established by IV injection. The class given is in vivo, Rag2−/−; Il2rg−/− mice. The conditions noted are these: IV-established tumors, 5 mg/kg twice weekly intravenous. As to the method:
(§1) FIGS. 7(A-B) show the effect of anti-HER2 therapy on HER2-positive BT474-Gluc breast cancer brain metastases established in Rag2^−/−; Il2rg^−/− mice. Trastuzumab at 5 mg/kg was administered twice weekly via intravenous tail vein injection, and treatment was initiated when tumors reached 10 mm^3 in volume. MRI was used to monitor brain tumor size and response to treatment.
(§2) IV injection of BT474-Gluc cells reproduced the metastatic pattern observed in breast cancer patients, with multiple metastatic sites (Table 2). Importantly, brain tumors developed in a majority of the mice (>90%) before they succumbed to visceral tumor burden, with a distribution similar to that observed in patients. The median time to establishment of brain metastatic tumors visible by MRI was 4.2 months (range 2.9-6.1 months). We tested the effects of a standard anti-HER2 therapy, trastuzumab, on the growth of BT474-Gluc tumors established by IV injection versus the commonly used intracranial (IC) method.

For experiment [2] the test system is unchanged. The experiment in a line: Anti-HER2 therapy on BT474-Gluc brain metastases established by IC injection. The class given is in vivo, Rag2−/−; Il2rg−/− mice. The conditions noted are these: IC-established tumors, 5 mg/kg twice weekly intravenous. As to the method:
as §1, §2

Where [3] appears, read: start at 10 mm^3, listed as trastuzumab.

For trastuzumab, the “effect on tumor progression” value in experiment [1] (start at 10 mm^3) is listed as “did not”; in experiment [1] (setting [3]), “failed to control tumor growth”; in experiment [2] (start at 10 mm^3), “significant delay in tumor progression”; in experiment [2] (setting [3]) it was “delay in tumor progression”.
